Data reported in ChEMBL document CHEMBL4229484, “7β-Methyl substituent is a structural locus associated with activity cliff for nepenthone analogues” (2018).

Chains of the proteins cited; added tags and fusions are not shown.
UniProt P41145, whole entry: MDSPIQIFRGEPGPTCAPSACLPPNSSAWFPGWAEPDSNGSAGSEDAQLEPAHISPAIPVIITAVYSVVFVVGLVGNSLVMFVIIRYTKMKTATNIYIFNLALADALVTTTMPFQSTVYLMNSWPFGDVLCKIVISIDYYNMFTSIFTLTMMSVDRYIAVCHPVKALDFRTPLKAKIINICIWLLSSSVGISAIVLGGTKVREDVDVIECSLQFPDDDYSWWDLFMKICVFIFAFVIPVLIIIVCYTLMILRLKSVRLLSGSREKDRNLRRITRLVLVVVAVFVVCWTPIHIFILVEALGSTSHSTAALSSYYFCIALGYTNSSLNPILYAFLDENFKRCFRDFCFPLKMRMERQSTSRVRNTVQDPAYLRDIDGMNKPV
UniProt P35372, whole entry: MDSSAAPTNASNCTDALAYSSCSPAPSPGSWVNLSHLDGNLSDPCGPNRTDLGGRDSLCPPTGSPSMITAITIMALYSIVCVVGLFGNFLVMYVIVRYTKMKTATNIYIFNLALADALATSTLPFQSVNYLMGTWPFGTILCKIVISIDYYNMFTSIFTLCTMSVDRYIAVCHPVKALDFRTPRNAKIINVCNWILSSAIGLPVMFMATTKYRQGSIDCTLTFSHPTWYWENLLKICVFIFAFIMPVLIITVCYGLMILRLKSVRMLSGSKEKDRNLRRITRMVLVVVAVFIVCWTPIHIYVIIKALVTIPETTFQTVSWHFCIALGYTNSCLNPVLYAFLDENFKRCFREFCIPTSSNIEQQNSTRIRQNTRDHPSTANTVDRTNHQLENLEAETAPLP
UniProt P33533, whole entry: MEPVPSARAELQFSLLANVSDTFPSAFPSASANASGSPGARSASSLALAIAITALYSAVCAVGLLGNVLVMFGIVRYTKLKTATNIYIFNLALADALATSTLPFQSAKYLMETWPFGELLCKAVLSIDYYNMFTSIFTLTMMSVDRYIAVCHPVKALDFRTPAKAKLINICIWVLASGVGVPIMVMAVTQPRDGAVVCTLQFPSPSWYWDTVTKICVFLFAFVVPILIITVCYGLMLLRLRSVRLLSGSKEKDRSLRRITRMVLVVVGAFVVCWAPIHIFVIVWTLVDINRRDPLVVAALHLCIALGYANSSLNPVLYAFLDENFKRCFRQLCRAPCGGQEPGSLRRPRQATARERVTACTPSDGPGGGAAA
UniProt P33535, whole entry: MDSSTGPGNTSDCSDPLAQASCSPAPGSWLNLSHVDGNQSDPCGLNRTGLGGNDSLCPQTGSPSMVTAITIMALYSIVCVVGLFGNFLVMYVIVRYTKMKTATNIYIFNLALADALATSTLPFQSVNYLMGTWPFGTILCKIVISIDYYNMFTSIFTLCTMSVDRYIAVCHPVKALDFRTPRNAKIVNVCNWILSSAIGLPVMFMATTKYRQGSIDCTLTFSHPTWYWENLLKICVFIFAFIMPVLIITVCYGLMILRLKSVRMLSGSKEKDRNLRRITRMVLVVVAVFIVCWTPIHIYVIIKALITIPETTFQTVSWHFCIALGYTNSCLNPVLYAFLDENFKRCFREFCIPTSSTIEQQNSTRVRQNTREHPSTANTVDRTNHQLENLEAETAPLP
UniProt P41143, whole entry: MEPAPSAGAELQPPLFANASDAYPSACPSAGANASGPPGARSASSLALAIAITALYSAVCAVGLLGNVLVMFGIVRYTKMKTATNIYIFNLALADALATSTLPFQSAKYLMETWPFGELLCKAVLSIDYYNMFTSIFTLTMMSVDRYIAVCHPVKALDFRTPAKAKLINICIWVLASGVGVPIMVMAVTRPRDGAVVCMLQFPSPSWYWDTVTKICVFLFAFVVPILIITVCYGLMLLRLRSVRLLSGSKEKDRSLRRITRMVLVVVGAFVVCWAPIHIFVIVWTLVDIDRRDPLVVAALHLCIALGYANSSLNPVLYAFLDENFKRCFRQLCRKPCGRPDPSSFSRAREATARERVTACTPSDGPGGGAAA

Tests used:
[1] = target: T1, Kappa-type opioid receptor (Homo sapiens, UniProt P41145); experiment: Agonist activity at human KOR expressed in CHO cell membranes after 1 hr by [35S]GTPgammaS binding based liquid scintillation counting analysis
Mu-type opioid receptor [2] = target: Mu-type opioid receptor (Homo sapiens, UniProt P35372); experiment: Displacement of [3H]DAMGO from human MOR expressed in CHO cell membranes after 30 mins by liquid scintillation counting analysis
[3] = target: T1, Kappa-type opioid receptor; experiment: Displacement of [3H]U69,593 from human KOR expressed in CHO cell membranes after 30 mins by liquid scintillation counting analysis
[4] = target: Delta-type opioid receptor (Rattus norvegicus, UniProt P33533); experiment: Agonist activity at rat DOR expressed in CHO cell membranes after 1 hr by [35S]GTPgammaS binding based liquid scintillation counting analysis
Mu-type opioid receptor [5] = target: Mu-type opioid receptor (Rattus norvegicus, UniProt P33535); experiment: Agonist activity at rat MOR expressed in CHO cell membranes after 1 hr by [35S]GTPgammaS binding based liquid scintillation counting analysis
[6] = target: Delta-type opioid receptor (Homo sapiens, UniProt P41143); experiment: Displacement of [3H]DPDPE from human DOR expressed in CHO cell membranes after 30 mins by liquid scintillation counting analysis

Row | SMILES | EC50 [1] | Ki (Mu-type opioid receptor [2]) | Ki [3] | EC50 [4] | EC50 (Mu-type opioid receptor [5]) | Ki [6]
1 | COc1ccc2c3c1O[C@H]1[C@@]4(OC)C=C[C@@]5(C[C@@H]4C(=O)c4ccccc4)[C@@H](C2)N(CC2CC2)CC[C@]315 | 0.001 µM | 0.13 µM | 0.0004 µM | 0.678 µM | 0.13 µM | 
2 | COc1ccc2c3c1O[C@H]1[C@@]4(OC)CC[C@@]5(C[C@]4(C)CO)[C@@H](C2)N(CC2CC2)CC[C@]315 |  | 0.0303 µM | 0.0027 µM | 0.0908 µM | 0.0873 µM | 0.116 µM
3 | COc1ccc2c3c1O[C@H]1[C@@]4(OC)CC[C@@]5(C[C@]4(C)C=O)[C@@H](C2)N(CC2CC2)CC[C@]315 |  | 0.0493 µM | 0.0046 µM | 0.144 µM | 0.428 µM | 0.179 µM
4 | COc1ccc2c3c1O[C@H]1[C@@]4(OC)CC[C@@]5(C[C@]4(C)OC(=O)c4ccc(C(F)(F)F)cc4)[C@@H](C2)N(CC2CC2)CC[C@]315 |  | 0.0071 µM | 0.169 µM |  |  | 0.16 µM
5 | COc1ccc(C(=O)[C@@]2(C)C[C@@]34CC[C@]2(OC)[C@@H]2Oc5c(OC)ccc6c5[C@@]23CCN(CC2CC2)[C@@H]4C6)cc1 | 0.0654 µM | 0.0393 µM | 0.0485 µM | 0.594 µM | 0.146 µM | 0.123 µM
6 | COc1ccc(C(O)[C@@]2(C)C[C@@]34CC[C@]2(OC)[C@@H]2Oc5c(OC)ccc6c5[C@@]23CCN(CC2CC2)[C@@H]4C6)cc1 (some centres undefined) |  |  | 0.0006 µM |  |  | 0.0189 µM
7 | COc1ccc2c3c1O[C@H]1[C@@]4(OC)CC[C@@]5(C[C@]4(C)C(=O)c4ccc(C(F)(F)F)cc4)[C@@H](C2)N(CC2CC2)CC[C@]315 | 0.173 µM |  | 0.0721 µM | 1.76 µM |  | 0.127 µM
8 | COc1cccc(C(O)[C@@]2(C)C[C@@]34CC[C@]2(OC)[C@@H]2Oc5c(OC)ccc6c5[C@@]23CCN(CC2CC2)[C@@H]4C6)c1 (some centres undefined) |  |  | 0.0021 µM |  |  | 0.0263 µM
9 | COc1ccc2c3c1O[C@H]1[C@@]4(OC)CC[C@@]5(C[C@]4(C)OC(C)=O)[C@@H](C2)N(CC2CC2)CC[C@]315 |  | 0.0072 µM | 0.009 µM |  |  | 0.104 µM
10 | COc1ccc2c3c1O[C@H]1[C@@]4(OC)CC[C@@]5(C[C@]4(C)C(O)c4ccccc4)[C@@H](C2)N(CC2CC2)CC[C@]315 (some centres undefined) |  | 0.783 µM | 0.038 µM |  |  | 0.485 µM
11 | COc1ccc2c3c1O[C@H]1[C@@]4(OC)CC[C@@]5(C[C@]4(C)OC(=O)C(C)C)[C@@H](C2)N(CC2CC2)CC[C@]315 |  | 0.0341 µM | 0.028 µM |  |  | 0.264 µM
12 | COc1cccc(C(=O)[C@@]2(C)C[C@@]34CC[C@]2(OC)[C@@H]2Oc5c(OC)ccc6c5[C@@]23CCN(CC2CC2)[C@@H]4C6)c1 |  | 0.0043 µM | 0.0113 µM |  |  | 1.49 µM
13 | COc1ccc2c3c1O[C@H]1[C@@]4(OC)CC[C@@]5(C[C@]4(C)C(=O)c4ccc(-c6ccccc6)cc4)[C@@H](C2)N(CC2CC2)CC[C@]315 | 0.0872 µM | 0.485 µM | 0.263 µM | 0.0312 µM | 0.766 µM | 0.349 µM
14 | COc1ccc2c3c1O[C@H]1[C@@]4(OC)CC[C@@]5(C[C@]4(C)C(O)c4ccc(C(F)(F)F)cc4)[C@@H](C2)N(CC2CC2)CC[C@]315 (some centres undefined) |  | 0.0127 µM | 0.0091 µM |  |  | 0.0593 µM
15 | COc1ccc2c3c1O[C@H]1[C@@]4(OC)CC[C@@]5(C[C@]4(C)C(=O)c4ccccc4)[C@@H](C2)N(CC2CC2)CC[C@]315 | 1.46 µM | 0.303 µM | 0.0332 µM | 9.99 µM | 1.6 µM | 0.345 µM
16 | COc1ccc2c3c1O[C@H]1[C@@]4(OC)CC[C@@]5(C[C@]4(C)C(O)c4ccc(-c6ccccc6)cc4)[C@@H](C2)N(CC2CC2)CC[C@]315 (some centres undefined) |  |  | 0.303 µM |  |  | 0.0486 µM
17 | COc1ccc2c3c1O[C@H]1[C@@]4(OC)CC[C@@]5(C[C@]4(C)OC(=O)c4ccccc4)[C@@H](C2)N(CC2CC2)CC[C@]315 |  | 0.0739 µM | 1.25 µM |  |  | 0.0554 µM
